Patent publication US20170275350A1 (Scripps Research, published 2017)

Biological target: Protease activated receptor-1 (PAR1), endogenous on EA.hy.926 endothelial cells (human) (UniProt P25116)
Test: cell-based or functional assay

ERK1/2 phosphorylation in EA.hy.926 cells (immunoblot, ratio to total ERK1/2): 3 fold
Substance: Thrombin (from UniProt P00734 328-622) (enzyme)
